Source: patent US20110130386A1, “DNA-PK INHIBITORS” (priority 2008, published 2011)

Protein sequences, listed by entry. Tags and fused reporters are not part of them.
UniProt P78527, whole entry: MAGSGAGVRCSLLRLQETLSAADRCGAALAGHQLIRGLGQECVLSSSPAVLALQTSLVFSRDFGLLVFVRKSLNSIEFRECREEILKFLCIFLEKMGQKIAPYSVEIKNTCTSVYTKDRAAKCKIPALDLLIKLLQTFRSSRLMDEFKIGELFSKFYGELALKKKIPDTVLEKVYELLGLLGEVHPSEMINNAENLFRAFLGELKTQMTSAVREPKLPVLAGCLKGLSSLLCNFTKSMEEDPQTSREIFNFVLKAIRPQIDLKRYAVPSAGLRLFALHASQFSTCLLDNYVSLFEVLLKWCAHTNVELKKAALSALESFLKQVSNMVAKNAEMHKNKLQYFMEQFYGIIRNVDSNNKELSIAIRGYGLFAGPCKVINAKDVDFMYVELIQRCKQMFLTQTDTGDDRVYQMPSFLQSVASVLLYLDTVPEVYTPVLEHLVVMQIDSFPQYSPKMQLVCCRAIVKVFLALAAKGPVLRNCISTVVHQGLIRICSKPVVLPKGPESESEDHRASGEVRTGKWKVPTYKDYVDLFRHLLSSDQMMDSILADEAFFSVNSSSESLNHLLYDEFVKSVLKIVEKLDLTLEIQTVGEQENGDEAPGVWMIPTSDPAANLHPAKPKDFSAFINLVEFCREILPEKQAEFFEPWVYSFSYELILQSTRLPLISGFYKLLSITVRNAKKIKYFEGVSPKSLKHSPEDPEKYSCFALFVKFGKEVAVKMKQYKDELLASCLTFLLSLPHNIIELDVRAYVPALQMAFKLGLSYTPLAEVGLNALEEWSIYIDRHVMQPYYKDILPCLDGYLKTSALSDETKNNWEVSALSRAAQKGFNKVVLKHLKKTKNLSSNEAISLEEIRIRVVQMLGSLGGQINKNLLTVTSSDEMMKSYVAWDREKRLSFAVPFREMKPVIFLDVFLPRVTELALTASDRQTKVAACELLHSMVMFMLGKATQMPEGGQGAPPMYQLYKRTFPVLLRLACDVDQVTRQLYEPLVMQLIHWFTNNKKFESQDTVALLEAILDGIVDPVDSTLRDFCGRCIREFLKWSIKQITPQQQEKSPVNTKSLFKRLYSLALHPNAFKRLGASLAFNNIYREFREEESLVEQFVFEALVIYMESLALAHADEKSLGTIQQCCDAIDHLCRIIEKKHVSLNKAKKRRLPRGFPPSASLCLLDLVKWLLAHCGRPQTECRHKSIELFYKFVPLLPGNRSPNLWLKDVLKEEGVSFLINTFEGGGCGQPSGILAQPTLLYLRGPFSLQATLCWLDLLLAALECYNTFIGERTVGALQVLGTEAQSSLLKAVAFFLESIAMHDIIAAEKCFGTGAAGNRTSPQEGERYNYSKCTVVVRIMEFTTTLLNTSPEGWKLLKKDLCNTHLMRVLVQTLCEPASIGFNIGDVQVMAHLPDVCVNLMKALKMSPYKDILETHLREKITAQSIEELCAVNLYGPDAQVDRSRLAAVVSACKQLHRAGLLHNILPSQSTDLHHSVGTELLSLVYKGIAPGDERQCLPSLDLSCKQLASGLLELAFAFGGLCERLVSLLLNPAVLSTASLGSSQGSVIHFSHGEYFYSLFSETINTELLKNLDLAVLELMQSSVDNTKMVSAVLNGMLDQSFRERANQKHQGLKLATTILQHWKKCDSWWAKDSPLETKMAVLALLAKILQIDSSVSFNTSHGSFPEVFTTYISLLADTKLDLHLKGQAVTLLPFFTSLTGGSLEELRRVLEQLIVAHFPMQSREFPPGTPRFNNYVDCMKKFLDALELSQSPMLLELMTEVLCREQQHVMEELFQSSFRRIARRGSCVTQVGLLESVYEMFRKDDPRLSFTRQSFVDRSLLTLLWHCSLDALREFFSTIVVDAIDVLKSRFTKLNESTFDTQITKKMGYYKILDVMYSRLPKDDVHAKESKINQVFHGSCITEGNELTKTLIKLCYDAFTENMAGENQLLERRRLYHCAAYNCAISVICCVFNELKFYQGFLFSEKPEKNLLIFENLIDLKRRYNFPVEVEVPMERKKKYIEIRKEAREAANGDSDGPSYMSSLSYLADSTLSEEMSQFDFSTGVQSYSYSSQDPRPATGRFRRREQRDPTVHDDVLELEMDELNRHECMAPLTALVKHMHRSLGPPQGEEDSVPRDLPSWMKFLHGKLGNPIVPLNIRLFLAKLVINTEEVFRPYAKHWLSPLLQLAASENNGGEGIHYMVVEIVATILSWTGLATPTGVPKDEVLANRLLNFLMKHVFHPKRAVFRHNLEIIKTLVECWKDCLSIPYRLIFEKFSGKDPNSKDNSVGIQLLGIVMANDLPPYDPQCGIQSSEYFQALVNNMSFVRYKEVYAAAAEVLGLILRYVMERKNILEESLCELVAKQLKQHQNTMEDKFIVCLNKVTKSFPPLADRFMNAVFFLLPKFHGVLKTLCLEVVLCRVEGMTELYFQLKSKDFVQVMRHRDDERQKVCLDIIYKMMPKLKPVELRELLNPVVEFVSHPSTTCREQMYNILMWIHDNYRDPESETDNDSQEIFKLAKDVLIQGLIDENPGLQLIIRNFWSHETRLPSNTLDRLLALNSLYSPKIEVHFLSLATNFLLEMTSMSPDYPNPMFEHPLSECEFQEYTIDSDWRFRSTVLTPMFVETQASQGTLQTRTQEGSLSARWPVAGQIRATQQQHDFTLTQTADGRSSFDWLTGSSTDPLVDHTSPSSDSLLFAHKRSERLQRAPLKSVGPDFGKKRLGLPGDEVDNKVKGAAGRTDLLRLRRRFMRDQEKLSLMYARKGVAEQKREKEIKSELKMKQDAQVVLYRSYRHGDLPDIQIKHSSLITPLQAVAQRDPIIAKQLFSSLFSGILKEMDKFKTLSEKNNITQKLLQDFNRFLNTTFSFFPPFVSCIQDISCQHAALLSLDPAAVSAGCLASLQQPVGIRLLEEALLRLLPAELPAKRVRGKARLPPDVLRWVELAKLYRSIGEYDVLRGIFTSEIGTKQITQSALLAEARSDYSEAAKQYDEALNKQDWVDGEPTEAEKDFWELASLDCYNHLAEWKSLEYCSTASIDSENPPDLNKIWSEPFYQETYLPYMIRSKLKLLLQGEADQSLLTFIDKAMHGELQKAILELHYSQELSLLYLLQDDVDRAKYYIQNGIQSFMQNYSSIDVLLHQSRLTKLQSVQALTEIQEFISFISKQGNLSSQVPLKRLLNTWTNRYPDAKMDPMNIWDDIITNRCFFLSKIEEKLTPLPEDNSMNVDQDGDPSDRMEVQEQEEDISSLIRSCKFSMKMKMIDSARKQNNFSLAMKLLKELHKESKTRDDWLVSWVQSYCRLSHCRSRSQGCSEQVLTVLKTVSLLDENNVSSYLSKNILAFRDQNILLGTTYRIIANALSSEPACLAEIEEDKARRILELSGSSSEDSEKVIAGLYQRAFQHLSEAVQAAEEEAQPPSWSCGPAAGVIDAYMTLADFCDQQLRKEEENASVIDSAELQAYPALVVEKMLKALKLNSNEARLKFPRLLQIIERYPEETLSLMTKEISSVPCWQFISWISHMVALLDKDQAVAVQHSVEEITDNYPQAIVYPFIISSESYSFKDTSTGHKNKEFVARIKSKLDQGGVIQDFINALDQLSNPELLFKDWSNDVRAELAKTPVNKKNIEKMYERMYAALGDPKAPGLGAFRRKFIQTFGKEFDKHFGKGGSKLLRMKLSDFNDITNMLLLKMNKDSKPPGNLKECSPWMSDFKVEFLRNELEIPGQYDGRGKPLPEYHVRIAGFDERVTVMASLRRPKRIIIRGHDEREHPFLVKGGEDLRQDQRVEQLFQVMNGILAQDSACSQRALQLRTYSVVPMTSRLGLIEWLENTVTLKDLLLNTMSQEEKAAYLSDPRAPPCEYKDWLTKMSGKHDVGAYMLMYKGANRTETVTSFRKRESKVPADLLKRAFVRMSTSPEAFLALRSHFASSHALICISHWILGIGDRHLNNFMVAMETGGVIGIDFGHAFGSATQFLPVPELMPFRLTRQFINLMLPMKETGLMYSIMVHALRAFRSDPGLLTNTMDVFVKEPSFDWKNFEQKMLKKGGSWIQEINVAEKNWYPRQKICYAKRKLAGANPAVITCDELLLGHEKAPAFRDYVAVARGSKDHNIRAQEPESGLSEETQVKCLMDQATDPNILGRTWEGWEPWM
UniProt P12956, whole entry partner: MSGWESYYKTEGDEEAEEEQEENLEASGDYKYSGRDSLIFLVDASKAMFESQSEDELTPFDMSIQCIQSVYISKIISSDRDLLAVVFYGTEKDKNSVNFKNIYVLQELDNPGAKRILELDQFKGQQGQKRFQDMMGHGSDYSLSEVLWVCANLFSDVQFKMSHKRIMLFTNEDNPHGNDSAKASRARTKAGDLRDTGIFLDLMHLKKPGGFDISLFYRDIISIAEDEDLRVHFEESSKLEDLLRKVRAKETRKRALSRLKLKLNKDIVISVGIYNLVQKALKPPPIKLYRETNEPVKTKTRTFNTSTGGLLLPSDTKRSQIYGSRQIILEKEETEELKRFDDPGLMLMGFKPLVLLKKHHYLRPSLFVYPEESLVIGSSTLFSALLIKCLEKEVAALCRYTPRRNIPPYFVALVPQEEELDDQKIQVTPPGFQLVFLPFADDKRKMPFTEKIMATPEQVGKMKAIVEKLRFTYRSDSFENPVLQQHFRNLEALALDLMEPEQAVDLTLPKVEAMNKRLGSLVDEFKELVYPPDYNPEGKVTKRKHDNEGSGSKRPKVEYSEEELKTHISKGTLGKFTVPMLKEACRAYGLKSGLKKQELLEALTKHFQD
UniProt P13010, whole entry partner: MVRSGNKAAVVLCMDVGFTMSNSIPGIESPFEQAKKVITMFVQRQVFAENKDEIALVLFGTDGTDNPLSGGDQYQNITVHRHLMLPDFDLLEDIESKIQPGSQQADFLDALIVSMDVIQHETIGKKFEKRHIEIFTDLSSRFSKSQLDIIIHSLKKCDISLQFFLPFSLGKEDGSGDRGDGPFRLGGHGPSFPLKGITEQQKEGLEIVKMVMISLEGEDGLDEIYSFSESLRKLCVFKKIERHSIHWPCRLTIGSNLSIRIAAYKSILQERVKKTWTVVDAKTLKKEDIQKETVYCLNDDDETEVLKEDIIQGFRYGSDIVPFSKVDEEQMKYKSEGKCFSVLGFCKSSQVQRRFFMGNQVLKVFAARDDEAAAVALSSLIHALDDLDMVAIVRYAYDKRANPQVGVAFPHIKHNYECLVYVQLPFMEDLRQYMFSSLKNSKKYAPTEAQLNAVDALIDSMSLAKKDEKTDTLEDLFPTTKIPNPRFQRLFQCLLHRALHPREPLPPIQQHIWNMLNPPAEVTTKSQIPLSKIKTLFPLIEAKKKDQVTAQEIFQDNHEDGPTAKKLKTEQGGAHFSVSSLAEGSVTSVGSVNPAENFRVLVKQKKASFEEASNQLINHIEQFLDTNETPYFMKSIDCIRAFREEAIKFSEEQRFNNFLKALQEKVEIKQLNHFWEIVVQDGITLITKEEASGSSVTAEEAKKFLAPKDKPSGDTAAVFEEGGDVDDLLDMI

Each compound was assayed against Mammalian DNA-PK (Homo sapiens, UniProt P78527) (assay: DNA-PK inhibition assay (ELISA of p53 Ser15 phosphorylation of GST-p53N66)). Conditions: read-out: mean IC50; DNA-PK from HeLa nuclear extract; mean value.
Format: biochemical, Mammalian (isolated from HeLa cell nuclear extract)

Compound | IC50 [nM]
O=c1cc(N2CCOCC2)oc2c(-c3ccc(CN4CCCCC4F)c4c3sc3ccccc34)cccc12 (stereo not drawn) | 307
O=c1cc(N2CCOCC2)oc2c(-c3ccc(CN4CCCCC4O)c4c3sc3ccccc34)cccc12 (stereo not drawn) | 127
O=C1CNCCN1Cc1ccc(-c2cccc3c(=O)cc(N4CCOCC4)oc23)c2sc3ccccc3c12 | 48.5
